This assay deals with Recombinant wild-type human transthyretin (wt rhTTR) (human) (UniProt P02766). Description: ITC. In general terms: In ITC the heat of successive injections is recorded.

As for “Aβ(1–42) peptide (peptide; modification not given; other documents disagree on this pair)”, the Kd was 940 nM and the stoichiometry N came out at 1.

A word on the Kd: it is the concentration at which binding is half-saturated. What is called stoichiometry N is a count of units in the complex or per binding partner.

These data come from article PMC7115756.
